The source of these data is PubChem BioAssay AID2742 (NMMLSC, 2010).

Only a part is listed here, and it is no random draw. The source made the active and inactive calls.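 The calls were made as follows: active = fitted half-maximal concentration for changing background-corrected GFP signal at or below a set limit; inactive = the rest.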

A short description of the test: TOR pathway reporter MEP2-GFP, concentration series – S. cerevisiae, flow cytometry GFP, MLPCN hits, dose response (AID 2742).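 Also: GFP tag reports level of MEP2 protein as a downstream target of TOR signalling.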 Conditions: S. cerevisiae MEP2-GFP strain, 3 h, at 33 µM (top of the series).

`C[N+]1=C2C=CC=CC=C2SC12C([N+](=O)[O-])=CC([N+](=O)[O-])=C[C-]2[N+](=O)[O-]` (stereo unspecified): the GFP fluorescence (kMESF), higher = increase was inactive: 6.1%.
